Chains of the proteins cited; added tags and fusions are not shown.
UniProt Q99705, whole entry E4Q/A5T: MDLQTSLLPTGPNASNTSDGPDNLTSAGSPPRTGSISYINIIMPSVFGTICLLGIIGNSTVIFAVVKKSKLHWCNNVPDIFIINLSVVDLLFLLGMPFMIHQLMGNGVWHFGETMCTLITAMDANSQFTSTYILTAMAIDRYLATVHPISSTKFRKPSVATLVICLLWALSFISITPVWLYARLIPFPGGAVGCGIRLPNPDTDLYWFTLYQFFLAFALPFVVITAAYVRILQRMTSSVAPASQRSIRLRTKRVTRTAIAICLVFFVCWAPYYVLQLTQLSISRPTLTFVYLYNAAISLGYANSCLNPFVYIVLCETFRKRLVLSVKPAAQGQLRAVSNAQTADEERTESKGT

According to patent EP2892896B1 (Bristol-Myers Squibb Company, priority 2012, dated 2014):

Target: T1, human melanin concentrating hormone receptor (MCHR1) (Homo sapiens, UniProt Q99705, A5T/E4Q)
T1 construct: expressed in transfected cells; host or cells: HEK-293 (stably transfected), membranes
Assay: Radioligand binding assay for assessment of MCHR1 activity
Details: membranes from HEK-293 cells expressing a mutated (E4Q, A5T) hMCHR1 receptor; competition with 0.06 - 0.1 nM [Phe13, [125I]Tyr19]-MCH; 90 min
Protocol: Radioligand Binding Assay for Assessment of MCHR1 Activity
An in vitro binding assay was used to determine the compound Ki value or ability to antagonize binding of a peptide agonist to the human melanin concentrating hormone receptor (MCHR1). Membranes from stably transfected HEK-293 cells expressing a mutated (E4Q, A5T) hMCHR1 receptor were prepared by dounce homogenization and differential centrifugation. Binding experiments were carried out with 0.5-1.0 µg of membrane protein incubated in a total of 0.2 mL in 25 mM HEPES (pH 7.4) with 10 mM MgCl2, 2 mM EGTA, and 0.1% BSA (Binding Buffer) for 90 min. For competition binding assays, reactions were carried out in the presence of with 0.06 - 0.1 nM [Phe^13, [^125I]Tyr^19]-MCH and increasing concentrations of unlabeled test molecules. Reactions were terminated by rapid vacuum filtration over 96 well-GFC […]® plates pre-coated with 0.075 mL binding buffer containing 1% BSA, and washed 3 times with 0.4 mL of Phospho-buffered Saline (pH 7.4) containing 0.01% TX-100. Filters were dried, 0.05 mL MicroScint 20 was added to each well and radioactivity was subsequently quantified by scintillation counting on a TOPCOUNT® microplate scintillation counter (Packard). Inhibitory constants were determined by nonlinear least squares analysis using a four parameter logistic equation.

Q: `CCS(=O)(=O)C[C@@H](O)COc1ccc(N2CCC(Oc3ccc(-c4ccccc4)cc3)C2=O)cc1OC` (stereo partly drawn) [Example 49, 3-(Biphenyl-4-yloxy)-1-(4-((S)-3-(ethylsulfonyl)-2-hydroxypropoxy)-3-methoxyphenyl)pyrrolidin-2-one] was tested. Which Ki did it give?
A: Its Ki is 6 nM.
